{
  "source": "ChEMBL document CHEMBL5154779",
  "about": "“Exploration of novel phthalazinone derivatives as potential efflux transporter inhibitors for reversing multidrug resistance and improving the oral absorption of paclitaxel” (Eur J Med Chem, 2022)",
  "tested_on": "A549",
  "experiment": "cells",
  "type": "functional, cell-based",
  "conditions": "Homo sapiens, A549, 48 h",
  "data": [
    {"smiles": "O=C(Nc1ccc(CCN2CCOCC2)cc1)c1nn(-c2ccc(Cl)cc2)c(=O)c2ccccc12", "values": [
      {"measurement": "IC50", "value": 46.3, "unit": "µM"}
    ]}
  ]
}
